We go through 1 molecule from patent US20180036445A1.

The target of test [1] is Fab (sample of Example 4). In words: static binding capacity in filter plate, after 4 h in 0.6% formic acid, 3% H2O2, 10 min incubation with Fab, relative to PBS control.
Test [2] has as its target Fab (sample of Example 4). Nature of the test: static binding capacity in filter plate, after 24 h in 0.6% formic acid, 3% H2O2, 10 min incubation with Fab, relative to PBS control.
Test [3] addresses Fab (sample of Example 4). In words: static binding capacity in filter plate, after 24 h in 100 mM peracetic acid, 90 min incubation with Fab, relative to PBS control.
Test [4] concerns the target Fab (sample of Example 4). Nature of the test: static binding capacity in filter plate, after 4 h in 5% H2O2, 10 min incubation with Fab, relative to PBS control.
The target of test [5] is Fab (sample of Example 4). In words: static binding capacity in filter plate, after 4 h in 500 mM peracetic acid, 10 min incubation with Fab, relative to PBS control.
The target in test [6] is Fab (sample of Example 4). In words: static binding capacity in filter plate, after 24 h in 0.6% formic acid, 3% H2O2, 90 min incubation with Fab, relative to PBS control.
Test [7] concerns the target Fab (sample of Example 4). Nature of the test: static binding capacity in filter plate, after 24 h in 5% H2O2, 90 min incubation with Fab, relative to PBS control.
Test [8] concerns the target Fab (sample of Example 4). Nature of the test: static binding capacity in filter plate, after 4 h in 0.6% formic acid, 3% H2O2, 90 min incubation with Fab, relative to PBS control.

B1: recombinant Protein L (rPrL) (protein)
chain: AVENKEETPETPETDSEEEVTIKANLIFANGSTQTAEFKGTFEKATSEAYAYADTLKKDNGEYTVDVADKGYTLNIKFAGKEKTPEEPKEEVTIKANLIYADGKTQTAEFKGTFEEATAEAYRYADALKKDNGEYTVDVADKGYTLNIKFAGKEKTPEEPKEEVTIKANLIYADGKTQTAEFKGTFEEATAEAYRYADLLAKENGKYTVDVADKGYTLNIKFAGKEKTPEEPKEEVTIKANLIYADGKTQTAEFKGTFAEATAEAYRYADLLAKENGKYTADLEDGGYTINIRFAGKKVDEKPEE
Consider B1, for which the Relative remaining SBC (%) was found to be 108% in test [1]; 104% in test [2]; 105% in test [3]; 104% in test [4]; 106% in test [5]; 106% in test [6]. The Relative remaining SBC (%) in test [7] and in test [8] was 105% throughout.
